Tested on: RAW 264.7 mouse macrophage-like cells (osteoclast precursors)
Assay: Cell death assay (annexin V-FITC / propidium iodide flow cytometry)
Type: cell-based
Conditions: 30-50 μM zoledronate; RAW 264.7 vs MC3T3 cells
Method: A preliminary study was performed to determine an optimal concentration range of zoledronate for effectively reducing the pre-osteoclast population, while simultaneously having a less harmful effect on osteoblasts. Cell death assays were conducted using mouse osteoblasts and osteoclast precursor cells at different concentrations of zoledronate (Bedford Laboratories, OH).
MC3T3 cells, which are well-established mouse calvarial cells of osteoblastic lineage, and RAW 264.7 mouse macrophage-like cells, which are well-known to form osteoclasts, were purchased from the American Type Culture Collection and Tissue (Manassas, Va.). MC3T3 and RAW 264.7 cells were grown in Dulbecco's Modified Eagle Medium supplemented with 10% fetal bovine serum, 100 μ/mL penicillin, […] streptomycin, and 0.1% fungizone (amphotericin B). […]
After treating the cells with zoledronate at concentrations of 0, 5, 10, 50, and 100 μM for 24 hours, the cells were pelleted by centrifugation and resuspended with 5 mL of PBS. Cell number was measured, and the cells were centrifuged and resuspended in binding buffer (A.G. Scientific, San Diego, Calif.) to a final cell density of 5×10^5 cells/mL. […] Monoparametric cytograms of annexin V-FITC fluorescence (FL1) versus number of events were created using the CellQuest program gating for living cells and excluding dead cells on the basis of their propidium iodide uptake.

zoledronate
cytotoxic effects on osteoclast precursors and osteoblasts: differential cytotoxic effects

Source: US20090319044A1, “Methods and Compositions for Improving the Incorporation of Orthopaedic and Orthodontic Implants” (priority 2006, published 2009)
